The record followed here is PMC8398766, “Do Small Molecules Activate the TrkB Receptor in the Same Manner as BDNF? Limitations of Published TrkB Low Molecular Agonists and Screening for Novel TrkB Orthosteric Agonists” (Pharmaceuticals, 2021).

By UniProt entry, the sequences of proteins in these tests, tags left out. Residues count along the entry.
UniProt Q63604, 32-821 limits assumed: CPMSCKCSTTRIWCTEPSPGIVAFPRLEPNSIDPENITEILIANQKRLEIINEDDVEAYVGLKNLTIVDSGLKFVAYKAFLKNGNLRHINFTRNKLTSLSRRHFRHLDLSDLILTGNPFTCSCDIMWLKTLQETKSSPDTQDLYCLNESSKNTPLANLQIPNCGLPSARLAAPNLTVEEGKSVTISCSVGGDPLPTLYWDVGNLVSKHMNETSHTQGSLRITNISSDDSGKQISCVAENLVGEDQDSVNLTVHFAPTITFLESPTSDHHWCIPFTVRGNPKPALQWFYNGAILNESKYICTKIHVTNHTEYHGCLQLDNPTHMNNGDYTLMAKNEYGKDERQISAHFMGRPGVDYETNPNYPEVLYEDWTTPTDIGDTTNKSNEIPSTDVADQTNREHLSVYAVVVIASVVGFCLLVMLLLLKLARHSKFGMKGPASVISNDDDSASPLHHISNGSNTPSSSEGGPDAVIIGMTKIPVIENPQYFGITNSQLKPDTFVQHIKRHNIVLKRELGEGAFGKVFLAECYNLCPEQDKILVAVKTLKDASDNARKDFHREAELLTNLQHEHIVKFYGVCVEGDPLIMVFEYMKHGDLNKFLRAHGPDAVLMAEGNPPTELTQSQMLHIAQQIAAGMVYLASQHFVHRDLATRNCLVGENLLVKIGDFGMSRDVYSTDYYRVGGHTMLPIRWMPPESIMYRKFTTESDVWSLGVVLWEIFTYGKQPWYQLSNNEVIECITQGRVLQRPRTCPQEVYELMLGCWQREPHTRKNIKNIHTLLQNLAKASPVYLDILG

Values joined by “and” are separate entries in the source; they are usually repeats but may differ in a detail not shown here. Equal values may be shown once.

In one assay the target is TrkB receptor (Rattus norvegicus, UniProt Q63604). The assay can be described thus: ELFI TrkB phosphorylation, orthosteric agonist mode, SN56 T48 cell line. Conditions: TrkB phosphorylation (Tyr706), 15 min; no orthosteric activity given as 0.
In assay [1] the test system is TrkB and downstream proteins (PLCγ1, Akt1, ERK1/2). The assay can be described thus: Downstream signaling immunoblot, RA-differentiated SH-SY5Y cell line. Conditions: 1, 10, 100 μM, 15 min. As to the method: The SH-SY5Y cell line was purchased from MilliporeSigma and cultured in growth medium: MEM (w/Earle’s Salts; w/L-Glutamine) + Ham’s F12 (w/L-Glutamine) (1:1 v/v), 1 × Antibiotic-Antimycotic, 1 × MEM Non-Essential Amino Acids (all reagents from Biowest, Riverside, MO, USA) and 15% FBS (Gibco, Thermo Fisher Scientific, Waltham, MA, USA). Cells were passaged using 0.25% Trypsin-EDTA (Biowest) and cultured in standard conditions (5% CO2, 37 °C with 95% relative humidity).
To differentiate SH-SY5Y, cells were seeded in a cell culture flask at a density of 10,000 cells/cm^2 in standard growth medium containing 10 μM retinoic acid (RA; MilliporeSigma) and cultured for 7 consecutive days. Then, differentiated cells were harvested by trypsinization (Trypsin-EDTA 1×, 3 min at 37 °C), centrifuged (250× g; 5 min at 25 °C) and counted. […]
Compound treatment was stopped by lysing cells with N-PER™ Neuronal Protein Extraction Reagent (Thermo Fisher Scientific) containing 1 × PhosSTOP™ (Roche, Basel, Switzerland), 1 × Halt Protease Inhibitor Single-Use Cocktail (ThermoFisher Scientific) and 5 mM EDTA. The lysates were collected by scraping, and centrifuged (8000× g; 10 min at 4 °C), and the protein concentration was determined using a BCA Pierce kit (ThermoFisher Scientific). […]

Assay [2] has the same test system. The assay can be described thus: Downstream signaling immunoblot, SN56 T48 cell line. As to conditions: for Activation of downstream proteins (Akt1 and ERK1/2) after inhibition of TrkB kinase by K252a: K252a 1 μM 15 min before 100 μM compound; for Phosphorylation of TrkB and downstream proteins (PLCγ1, Akt1, ERK1/2): compounds up to 100 μM, BDNF up to 100 ng/mL, 15 min. On the procedure:
The SN56 T48 cell line with stable overexpression of the TrkB receptor was purchased from Emory University (Atlanta, GA, USA) and cultivated according to the protocol described in Jang et al., 2010 [12]. The cell lines were cultivated with the following reagents: DMEM High Glucose, fetal bovine serum (FBS), Penicillin-Streptomycin Solution 100×, and Trypsin-EDTA 1×; all were purchased from Biowest, and G418 was from ThermoFisher Scientific. For the ELFI experiments, cells were seeded (8000/well) on a PDL-treated 96-well plate (BioCoat™, Corning Inc., Corning, NY, USA) and 6-well plate (400,000/well) for lysate collection and immunoblot analysis.
On the day of the experiments, cells were starved for 5 h with appropriate culture medium. SN56 T48 cells were treated with reference compounds at 100 μM or 1, 10, or 100 μM concentrations of the selected molecules, and 1, 10, and 100 ng/mL of BDNF. Differentiated SH-SY5Y cells were treated with 1, 10, or 100 μM concentrations of the tested molecules and 1, 10, and 100 ng/mL of BDNF for 15 min. For compound specificity, the evaluation cell lines were first pretreated with 1 μM K252a (MilliporeSigma, Saint Louis, MO, USA) for 15 min and then cotreated with 100 μM concentrations of the tested molecules.
Compound treatment was stopped by lysing cells with N-PER™ Neuronal Protein Extraction Reagent (Thermo Fisher Scientific) containing 1 × PhosSTOP™ (Roche, Basel, Switzerland), 1 × Halt Protease Inhibitor Single-Use Cocktail (ThermoFisher Scientific) and 5 mM EDTA. The lysates were collected by scraping, and centrifuged (8000× g; 10 min at 4 °C), and the protein concentration was determined using a BCA Pierce kit (ThermoFisher Scientific). The lysates were stored at −80 °C until further processing. Samples containing 20 μg of protein were further denatured in 4 × Laemli Buffer with 5% β-mercaptoethanol at 95 °C for 5 min and electrophoresed on gels prepared using a 10% TGX Stain-Free™ FastCast™ Acrylamide Kit (Bio-Rad). Afterwards, the proteins were transferred (wet transfer, 100 V, 60 min) onto nitrocellulose membranes (GE Healthcare, Chicago, IL, USA), which were blocked in 5% BSA in TBS-T (TBS + 0.1% Tween20) for 2 h. […] After repeated washes (TBS-T), the proteins were detected with HRP-conjugated anti-rabbit antibodies (1:4000, RT, 2 h) (Cell Signaling Technology), and the blots were incubated with Clarity Max ECL Western Blotting Substrate (Bio-Rad). Blot images and chemiluminescence signals were captured using a ChemiDoc MP Imaging System, and densitometry values were calculated using the Image Lab software (Bio-Rad). […]
On the technique in general: Immunoblotting shows a protein as a band on a membrane.

As usually defined, the EC50 is the concentration at which the effect is half-maximal. Consider `CC(C)=CCc1cccc2c(C3=C(O)C(=O)C=C(O)C3=O)c[nH]c12`, for which, on TrkB receptor, the EC50 was 44.2 µM and 37 µM. In assay [1], the “Phosphorylation of TrkB and downstream proteins (PLCγ1, Akt1, ERK1/2)” value (shortened to “Phosphorylation”) is “able to induce the phosphorylation of TrkB, Akt1, ERK1/2, and PLCγ1”. Further, in assay [2], the “Activation of downstream proteins (Akt1 and ERK1/2) after inhibition of TrkB kinase by K252a” value is “did not repress”; the “Phosphorylation” value is “demonstrated the activation of the TrkB receptor and phosphorylation of relevant downstream proteins”.
At TrkB receptor, `CC(C)=CCc1cccc2c(C3=C(O)C(=O)C(c4c[nH]c5ccccc45)=C(O)C3=O)c[nH]c12` displayed an EC50 of 6.6 µM. Moreover, the “Phosphorylation” value in assay [1] was “able to induce the phosphorylation of TrkB, Akt1, ERK1/2, and PLCγ1”. Further, in assay [2], the “Activation of downstream proteins (Akt1 and ERK1/2) after inhibition of TrkB kinase by K252a” value is given as “did not repress”; the “Phosphorylation” value is “demonstrated the activation of the TrkB receptor and phosphorylation of relevant downstream proteins”.
